This assay concerns the target AR wild type (Homo sapiens, UniProt P10275). The conditions noted are these: read-out: IC50 inhibition of AR dimerization, AR wild type.

Sequences of proteins named here, by UniProt entry; tags and fusion partners are left off. A change or cut given only in a name is not applied to a line headed by its entry.
UniProt P10275: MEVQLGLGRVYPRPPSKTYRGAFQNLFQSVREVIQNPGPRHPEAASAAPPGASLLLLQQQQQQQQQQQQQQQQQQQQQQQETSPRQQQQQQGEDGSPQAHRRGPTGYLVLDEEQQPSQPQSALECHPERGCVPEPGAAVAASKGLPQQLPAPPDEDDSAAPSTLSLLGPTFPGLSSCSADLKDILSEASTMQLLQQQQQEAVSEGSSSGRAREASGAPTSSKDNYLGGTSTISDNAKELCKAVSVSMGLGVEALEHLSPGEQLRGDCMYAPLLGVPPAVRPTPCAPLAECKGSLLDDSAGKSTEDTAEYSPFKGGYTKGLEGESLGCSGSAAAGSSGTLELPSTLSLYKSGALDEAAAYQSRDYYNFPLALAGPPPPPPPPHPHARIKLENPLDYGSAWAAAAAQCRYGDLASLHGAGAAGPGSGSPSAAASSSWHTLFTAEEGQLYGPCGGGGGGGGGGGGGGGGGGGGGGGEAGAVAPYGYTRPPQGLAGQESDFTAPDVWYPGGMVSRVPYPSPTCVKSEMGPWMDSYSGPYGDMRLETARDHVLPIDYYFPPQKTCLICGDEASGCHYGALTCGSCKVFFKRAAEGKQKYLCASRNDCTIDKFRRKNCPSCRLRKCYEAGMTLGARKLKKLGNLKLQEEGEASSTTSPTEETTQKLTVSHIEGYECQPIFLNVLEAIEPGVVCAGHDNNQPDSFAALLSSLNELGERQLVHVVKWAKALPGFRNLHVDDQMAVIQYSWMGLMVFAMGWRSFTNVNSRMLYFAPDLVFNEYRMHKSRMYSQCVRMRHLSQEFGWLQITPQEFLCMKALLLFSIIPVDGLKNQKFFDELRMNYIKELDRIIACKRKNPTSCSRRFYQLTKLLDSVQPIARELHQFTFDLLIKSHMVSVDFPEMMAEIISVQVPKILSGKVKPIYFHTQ

Structures are written as SMILES.

In the case of `CC(=O)c1cc(C(=O)N[C@@H](C)Cn2ccc(-c3ccc(C#N)c(Cl)c3)n2)[nH]n1` [Keto‐darolutamide], the IC50 came out at 120 ± 30 nM.

Broadly, the IC50 is the concentration needed to halve the response being measured.
